{"source": "patent US9962452B2", "about": "“Soluble complexes of drug analogs and albumin” (Zhuhai Beihai Biotech Co., Ltd., priority 2013, dated 2018)", "origin": "cited, not measured here", "settings": "Prijovich et al. 2003", "data": [{"substance": "9-Aminocamptothecin glucuronide", "values": [{"measurement": "blood half-life", "setting": "active lactone ring form in blood", "result": "about 50 minutes"}, {"measurement": "lactone ring form at equilibrium in blood", "setting": "blood", "result": "about 20%"}]}]}
